The text below walks through data of patent EP2695950A1, “Markers for responsiveness to an inhibitor of the fibroblast growth factor receptor” (Blackfield AG, priority 2012, dated 2014).

One assay concerns H1581 cells. The conditions noted are these: Figure 10; compared to control cell line H358.
Assay [1] concerns cell lines with FGFR1 amplification expressing high amounts of FGFR and Myc. The conditions noted are these: Figure 11; 1µM, over time.
In assay [2] the test system is NIH3T3 cells co-expressing FGFR1 together with c-Myc. The note with it: Figure 1; treatment with increasing concentrations; massive colony formation of FGFR1 + c-Myc cells. As for the experimental part: Growth medium containing indicated compound concentrations was added on top.

For `CCN(CC)CCCCNc1ncc2cc(-c3cc(OC)cc(OC)c3)c(NC(=O)NC(C)(C)C)nc2n1` [PD173074], in the assay on H1581 cells, the cytochrome c relase entry was “cytochrome c relase”. Further, the mitochondrial potential breakdown entry in assay [1] was “mitochondrial potential breakdown”. For the same molecule, in assay [2], the “colony formation in soft agar” value was “invertible”.
